Here are results for one compound from PMC6194023, “YLT-11, a novel PLK4 inhibitor, inhibits human breast cancer growth via inducing maladjusted centriole duplication and mitotic defect” (Cell Death & Disease, 2018).

The chains behind the UniProt entries cited, without tags or fusion partners. Where a name states a change or a piece, a line headed by the entry shows the natural chain unless it says otherwise.
UniProt O00444: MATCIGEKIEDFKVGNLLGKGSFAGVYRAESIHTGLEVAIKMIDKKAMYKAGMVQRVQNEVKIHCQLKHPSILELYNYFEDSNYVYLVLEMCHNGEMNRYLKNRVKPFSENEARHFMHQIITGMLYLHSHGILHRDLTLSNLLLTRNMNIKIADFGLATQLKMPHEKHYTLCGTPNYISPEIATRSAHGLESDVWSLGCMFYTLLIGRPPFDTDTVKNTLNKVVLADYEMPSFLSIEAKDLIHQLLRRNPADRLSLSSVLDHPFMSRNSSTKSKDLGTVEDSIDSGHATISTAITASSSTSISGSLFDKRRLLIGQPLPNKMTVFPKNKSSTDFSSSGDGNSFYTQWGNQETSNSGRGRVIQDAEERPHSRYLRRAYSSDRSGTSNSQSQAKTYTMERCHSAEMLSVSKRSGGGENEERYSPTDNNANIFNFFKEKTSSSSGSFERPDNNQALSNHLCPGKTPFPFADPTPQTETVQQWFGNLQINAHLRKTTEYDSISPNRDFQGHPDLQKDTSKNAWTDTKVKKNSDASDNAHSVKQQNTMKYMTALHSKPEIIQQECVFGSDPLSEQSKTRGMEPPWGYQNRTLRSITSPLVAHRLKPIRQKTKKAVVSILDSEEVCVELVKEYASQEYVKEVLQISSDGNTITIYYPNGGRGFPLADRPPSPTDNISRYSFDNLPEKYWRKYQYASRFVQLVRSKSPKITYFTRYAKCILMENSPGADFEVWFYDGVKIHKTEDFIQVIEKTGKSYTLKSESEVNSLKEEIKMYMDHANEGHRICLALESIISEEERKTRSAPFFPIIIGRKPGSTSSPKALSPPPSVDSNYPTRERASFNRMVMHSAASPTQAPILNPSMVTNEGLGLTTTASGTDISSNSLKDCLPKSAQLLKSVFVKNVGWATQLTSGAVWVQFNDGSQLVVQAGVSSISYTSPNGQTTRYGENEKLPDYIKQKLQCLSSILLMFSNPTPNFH

A word on the Kd: it is the free concentration of one partner at which half of the binding sites on the other are occupied at equilibrium, for simple one-to-one binding. Low values mean higher affinity, high ones lower affinity.

The target in assay [1] is T1, PLK4 (Homo sapiens, UniProt O00444). The conditions noted are these: 10 μM, MDA-MB-231 lysates, 40 to 55 ℃.
In assay [2] the target is T1, PLK4. As to the kind of experiment: biochemical. How it is done:
The lysates were centrifuged and filtered to remove cell debris. […] The kinase concentration in the eluates was measured by qPCR.

For `CC(=O)Nc1nccc(-c2ccc3c(/C=C/c4ccc(CN(C)C)cc4)n[nH]c3c2)n1` [YLT-11, (E)-N-(4-(3-(4-((dimethylamino)methyl)styryl)-1H-indazol-6-yl)pyrimidin-2-yl)acetamide], on PLK4 [1], the “thermal stability of PLK4” value is given as “increased the thermal stability of PLK4”. The compound also displayed a Kd on PLK4 [2] of 5.2 nM.
